Measurements taken from US10588952B2, “Conjugate vaccine using trimming function of ERAP1” (SUMITOMO DAINIPPON PHARMA CO., LTD., priority 2013, dated 2020).

By UniProt entry, the sequences of proteins in these tests, tags left out. Where a name states a change or a piece, a line headed by the entry shows the natural chain unless it says otherwise.
UniProt Q9NZ08: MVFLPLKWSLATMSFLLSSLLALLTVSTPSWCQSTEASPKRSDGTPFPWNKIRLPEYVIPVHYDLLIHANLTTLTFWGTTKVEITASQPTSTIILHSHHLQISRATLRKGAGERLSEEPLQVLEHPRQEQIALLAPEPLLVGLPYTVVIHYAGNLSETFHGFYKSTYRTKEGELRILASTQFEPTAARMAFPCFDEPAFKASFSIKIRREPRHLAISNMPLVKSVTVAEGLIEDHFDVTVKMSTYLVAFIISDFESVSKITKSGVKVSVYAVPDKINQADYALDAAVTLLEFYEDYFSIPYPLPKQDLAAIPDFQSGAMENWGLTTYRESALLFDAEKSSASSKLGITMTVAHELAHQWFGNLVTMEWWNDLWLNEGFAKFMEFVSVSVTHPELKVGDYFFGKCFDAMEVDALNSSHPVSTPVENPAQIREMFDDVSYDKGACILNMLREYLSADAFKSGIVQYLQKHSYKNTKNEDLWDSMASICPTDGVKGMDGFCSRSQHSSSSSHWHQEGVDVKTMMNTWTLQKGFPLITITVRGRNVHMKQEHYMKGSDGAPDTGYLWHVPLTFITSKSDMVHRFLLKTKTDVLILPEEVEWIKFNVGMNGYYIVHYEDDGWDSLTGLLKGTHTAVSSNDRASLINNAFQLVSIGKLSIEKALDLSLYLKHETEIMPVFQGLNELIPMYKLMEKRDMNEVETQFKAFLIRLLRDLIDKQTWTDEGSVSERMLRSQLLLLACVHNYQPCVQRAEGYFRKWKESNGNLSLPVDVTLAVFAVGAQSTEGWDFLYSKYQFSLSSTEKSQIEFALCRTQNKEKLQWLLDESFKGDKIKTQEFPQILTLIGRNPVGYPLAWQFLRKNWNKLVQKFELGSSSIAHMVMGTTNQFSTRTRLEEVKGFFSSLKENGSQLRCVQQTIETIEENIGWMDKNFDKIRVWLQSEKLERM

Legend:
ERAP1 [1] = molecular target: T1, ERAP1 (Homo sapiens, UniProt Q9NZ08); assay: Test of trimming of N-terminal amino acid by ERAP1 (Experimental Example 6, Examples 31-49); type: biochemical; details: ERAP1 solution 50 μg/ml, pH 8.0 Tris.HCl buffer, 30° C., 1.0 hr later
ERAP1 [2] = molecular target: T1, ERAP1; assay: Test of trimming of N-terminal amino acid by ERAP1 (Experimental Example 1, peptides of Examples 1-20); type: biochemical; details: ERAP1 solution 50 ng/ml, pH 8.0 Tris.HCl buffer, room temperature, 1.0 hr later
[3] = test system: HLA-A0201 transgenic mouse; assay: In vivo CTL induction ability, IFNγ ELISPOT, formula (4) versus long chain peptides SEQ ID NOs: 233, 234 (Comparative Example 2); details: for number of cells that responded to SEQ ID NO: 53 compared to mouse administered with the compound of formula (4): 265 μg/site versus formula (4) 250 μg/site; for IFNγ production specific to the peptide of interest shown by SEQ ID NO: 19 / IFNγ production specific to the peptide of interest shown by SEQ ID NO: 53: formula (4) 250 μg/site, SEQ ID NO: 233 or 234 265 μg/site, with IFA
[4] = test system: HLA-A0201 transgenic mouse; assay: In vivo CTL induction ability, IFNγ ELISPOT, formula (4) versus long chain peptides SEQ ID NOs: 231, 232 (Comparative Example 1); details: for IFNγ production specific to the peptide of interest shown by SEQ ID NO: 19 / IFNγ production specific to the peptide of interest shown by SEQ ID NO: 53: formula (4) 250 μg/site, SEQ ID NO: 231 or 232 225 μg/site, with IFA
[5] = 225 μg/site versus formula (4) 250 μg/site

CC[C@H](C)[C@H](NC(=O)[C@H](CCCCN)NC(=O)[C@H](CS)NC(=O)[C@@H](N)CCCCN)C(=O)N[C@@H](Cc1ccccc1)C(=O)NCC(=O)N[C@@H](CO)C(=O)N[C@@H](CC(C)C)C(=O)N[C@@H](C)C(=O)N[C@@H](Cc1ccccc1)C(=O)N[C@@H](CC(C)C)C(=O)O [Example 41]
formation rate of KIFGSLAFL (SEQ ID NO: 53)(%) (ERAP1 [1]): 0.0%

CC[C@H](C)[C@H](NC(=O)[C@H](CCCCN)NC(=O)[C@H](CS)NC(=O)[C@@H](N)Cc1c[nH]cn1)C(=O)N[C@@H](Cc1ccccc1)C(=O)NCC(=O)N[C@@H](CO)C(=O)N[C@@H](CC(C)C)C(=O)N[C@@H](C)C(=O)N[C@@H](Cc1ccccc1)C(=O)N[C@@H](CC(C)C)C(=O)O [Example 38]
formation rate of KIFGSLAFL (SEQ ID NO: 53)(%) (ERAP1 [1]): 0.0%

CC[C@H](C)[C@H](NC(=O)[C@H](CCCCN)NC(=O)[C@H](CC(=O)O)NC(=O)[C@@H](N)CS)C(=O)N[C@@H](Cc1ccccc1)C(=O)NCC(=O)N[C@@H](CO)C(=O)N[C@@H](CC(C)C)C(=O)N[C@@H](C)C(=O)N[C@@H](Cc1ccccc1)C(=O)N[C@@H](CC(C)C)C(=O)O [Example 5]
formation rate of KIFGSLAFL (SEQ ID NO: 53)(%) (ERAP1 [2]): 0%

CC[C@H](C)[C@H](NC(=O)[C@H](CCCCN)NC(=O)[C@H](CS)NC(=O)[C@@H](N)CCCNC(=N)N)C(=O)N[C@@H](Cc1ccccc1)C(=O)NCC(=O)N[C@@H](CO)C(=O)N[C@@H](CC(C)C)C(=O)N[C@@H](C)C(=O)N[C@@H](Cc1ccccc1)C(=O)N[C@@H](CC(C)C)C(=O)O [Example 32]
formation rate of KIFGSLAFL (SEQ ID NO: 53)(%) (ERAP1 [1]): 0.0%

CC[C@H](C)[C@H](NC(=O)[C@H](CCCCN)NC(=O)[C@H](CC(N)=O)NC(=O)[C@@H](N)CS)C(=O)N[C@@H](Cc1ccccc1)C(=O)NCC(=O)N[C@@H](CO)C(=O)N[C@@H](CC(C)C)C(=O)N[C@@H](C)C(=O)N[C@@H](Cc1ccccc1)C(=O)N[C@@H](CC(C)C)C(=O)O [Example 4]
formation rate of KIFGSLAFL (SEQ ID NO: 53)(%) (ERAP1 [2]): 0%

CC[C@H](C)[C@H](NC(=O)[C@H](CCCCN)NC(=O)[C@H](CS)NC(=O)[C@@H](N)Cc1c[nH]c2ccccc12)C(=O)N[C@@H](Cc1ccccc1)C(=O)NCC(=O)N[C@@H](CO)C(=O)N[C@@H](CC(C)C)C(=O)N[C@@H](C)C(=O)N[C@@H](Cc1ccccc1)C(=O)N[C@@H](CC(C)C)C(=O)O [Example 47]
formation rate of KIFGSLAFL (SEQ ID NO: 53)(%) (ERAP1 [1]): 0.9%

CC[C@H](C)[C@H](NC(=O)[C@H](CCCCN)NC(=O)CNC(=O)CNC(=O)CNC(=O)CNC(=O)CNC(=O)CNC(=O)[C@H](CC(C)C)NC(=O)[C@H](Cc1c[nH]cn1)NC(=O)[C@H](CCC(=O)O)NC(=O)[C@H](CCSC)NC(=O)CNC(=O)[C@H](CC(=O)O)NC(=O)[C@H](Cc1ccc(O)cc1)NC(=O)[C@H](CC(C)C)NC(=O)CN)C(=O)N[C@@H](Cc1ccccc1)C(=O)NCC(=O)N[C@@H](CO)C(=O)N[C@@H](CC(C)C)C(=O)N[C@@H](C)C(=O)N[C@@H](Cc1ccccc1)C(=O)N[C@@H](CC(C)C)C(=O)O [SEQ ID NO: 233]
number of cells that responded to SEQ ID NO: 53 compared to mouse administered with the compound of formula (4) [3]: very small
IFNγ production specific to the peptide of interest shown by SEQ ID NO: 19 [3]: detected
IFNγ production specific to the peptide of interest shown by SEQ ID NO: 53 [3]: detected

CC[C@H](C)[C@H](NC(=O)[C@H](CCCCN)NC(=O)CNC(=O)[C@@H](N)CS)C(=O)N[C@@H](Cc1ccccc1)C(=O)NCC(=O)N[C@@H](CO)C(=O)N[C@@H](CC(C)C)C(=O)N[C@@H](C)C(=O)N[C@@H](Cc1ccccc1)C(=O)N[C@@H](CC(C)C)C(=O)O [Example 8]
formation rate of KIFGSLAFL (SEQ ID NO: 53)(%) (ERAP1 [2]): 0%

CC[C@H](C)[C@H](NC(=O)[C@@H](N)CCCCN)C(=O)N[C@@H](Cc1ccccc1)C(=O)NCC(=O)N[C@@H](CO)C(=O)N[C@@H](CC(C)C)C(=O)N[C@@H](C)C(=O)N[C@@H](Cc1ccccc1)C(=O)N[C@@H](CC(C)C)C(=O)NCC(=O)N[C@@H](CC(C)C)C(=O)N[C@@H](Cc1ccc(O)cc1)C(=O)N[C@@H](CC(=O)O)C(=O)NCC(=O)N[C@@H](CCSC)C(=O)N[C@@H](CCC(=O)O)C(=O)N[C@@H](Cc1c[nH]cn1)C(=O)N[C@@H](CC(C)C)C(=O)O [SEQ ID NO: 232]
number of cells that responded to SEQ ID NO: 53 compared to mouse administered with the compound of formula (4) [4, 5]: very small
IFNγ production specific to the peptide of interest shown by SEQ ID NO: 19 [4]: detected
IFNγ production specific to the peptide of interest shown by SEQ ID NO: 53 [4]: detected

CC[C@H](C)[C@H](NC(=O)[C@@H](N)CCCCN)C(=O)N[C@@H](Cc1ccccc1)C(=O)NCC(=O)N[C@@H](CO)C(=O)N[C@@H](CC(C)C)C(=O)N[C@@H](C)C(=O)N[C@@H](Cc1ccccc1)C(=O)N[C@@H](CC(C)C)C(=O)NCC(=O)NCC(=O)NCC(=O)NCC(=O)NCC(=O)NCC(=O)NCC(=O)N[C@@H](CC(C)C)C(=O)N[C@@H](Cc1ccc(O)cc1)C(=O)N[C@@H](CC(=O)O)C(=O)NCC(=O)N[C@@H](CCSC)C(=O)N[C@@H](CCC(=O)O)C(=O)N[C@@H](Cc1c[nH]cn1)C(=O)N[C@@H](CC(C)C)C(=O)O [SEQ ID NO: 234]
number of cells that responded to SEQ ID NO: 53 compared to mouse administered with the compound of formula (4) [3]: very small
IFNγ production specific to the peptide of interest shown by SEQ ID NO: 19 [3]: detected
IFNγ production specific to the peptide of interest shown by SEQ ID NO: 53 [3]: detected

CC[C@H](C)[C@H](NC(=O)[C@H](CCCCN)NC(=O)[C@H](CC(C)C)NC(=O)[C@H](Cc1c[nH]cn1)NC(=O)[C@H](CCC(=O)O)NC(=O)[C@H](CCSC)NC(=O)CNC(=O)[C@H](CC(=O)O)NC(=O)[C@H](Cc1ccc(O)cc1)NC(=O)[C@H](CC(C)C)NC(=O)CN)C(=O)N[C@@H](Cc1ccccc1)C(=O)NCC(=O)N[C@@H](CO)C(=O)N[C@@H](CC(C)C)C(=O)N[C@@H](C)C(=O)N[C@@H](Cc1ccccc1)C(=O)N[C@@H](CC(C)C)C(=O)O [SEQ ID NO: 231]
number of cells that responded to SEQ ID NO: 19 compared to mouse administered with the compound of formula (4) [4, 5]: small
number of cells that responded to SEQ ID NO: 53 compared to mouse administered with the compound of formula (4) [4, 5]: very small
IFNγ production specific to the peptide of interest shown by SEQ ID NO: 19 [4]: detected
IFNγ production specific to the peptide of interest shown by SEQ ID NO: 53 [4]: detected

CC[C@H](C)[C@H](NC(=O)[C@H](CCCCN)NC(=O)[C@@H]1CCCN1C(=O)[C@@H](N)CS)C(=O)N[C@@H](Cc1ccccc1)C(=O)NCC(=O)N[C@@H](CO)C(=O)N[C@@H](CC(C)C)C(=O)N[C@@H](C)C(=O)N[C@@H](Cc1ccccc1)C(=O)N[C@@H](CC(C)C)C(=O)O [Example 15]
formation rate of KIFGSLAFL (SEQ ID NO: 53)(%) (ERAP1 [2]): 0%
